# Binding of CDR-mutated scFvs to a peptide of the spike HR2 region

Values reported by Li et al. 2023, doi:10.1038/s41467-023-39022-2 (FLAb copy).

Target: peptide PDVDLGDISGINAS, taken from heptad repeat 2 (HR2) of SARS-CoV-2 spike.

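Phage display of a naive human antibody library on the peptide gave the parent. Designed CDR sequences, proposed from the first random library and measured here. Several design methods are mixed in this list. The assay is AlphaSeq: two haploid yeast populations carry antibody and antigen on their surface. Pairs that bind mate more often; barcode pairs of the diploids are counted by sequencing. A regression on co-assayed BCL2-family reference pairs converts the normalised counts of each replicate to an apparent Kd. Each pool was mated in six replicate cultures.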

Each scFv is VH, a (GGGGS)3 linker, VL, as in the parent Ab-14, and differs from it in the CDRs of the light chain only.
VH: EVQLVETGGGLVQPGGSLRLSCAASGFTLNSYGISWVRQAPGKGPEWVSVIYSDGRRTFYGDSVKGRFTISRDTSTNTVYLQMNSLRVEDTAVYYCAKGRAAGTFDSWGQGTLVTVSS
VL: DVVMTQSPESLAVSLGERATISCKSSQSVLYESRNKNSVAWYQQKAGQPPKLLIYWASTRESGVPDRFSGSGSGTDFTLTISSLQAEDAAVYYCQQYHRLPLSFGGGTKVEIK

Variants are written as CDR1, CDR2 and CDR3 of the light chain (limits as in the source). Parent: KSSQSVLYESRNKNSVA, WASTRES, QQYHRLPLS.
Variants here have more than six changes.
Kd is apparent (estimated from mating counts) and averaged on the log scale over replicates with a signal. Smaller is tighter.
Where no diploid with the target was found in any replicate, the entry reads "nd": below detection, most likely a poor binder, though not proof of it.
Values of this round are not directly comparable with the first-round values of the same sequences.
In the paper, a design with two or fewer of six values counts as a poor binder.
Three control strains display no target. For all light chain designs, 4% of the pairings with them gave a signal, with a median of 430 nM and one signal in twenty below 38 nM, so weak values seen in few replicates may be background.
The parent sequence was in this pool as ten entries: three were never detected, three once, and four in most replicates, with averages from 2.2 nM to 240 nM.

- KLQFSWEYESRNKNSVA | SAHQREV | QQYHRLPLS -> 930 pM (6 of 6 replicates)
- MVSQLMLWGMHAKNSIA | EAQTRIN | QQYDRLPLF -> 650 nM (3 of 6 replicates)
- KIGATLNMLEHKQNNVA | DLVTREN | QQYHRLPLS -> 1.7 nM (6 of 6 replicates)
- KLSDTIEKMASNADNIA | DETETNM | QQYYTLPLS -> 47 nM (6 of 6 replicates)
- QVTNISDPYGRNRNNIA | QTSERAH | QQYQMLPLA -> 320 pM (6 of 6 replicates)
- MLSQMFGLGMKTSNSVA | QASMRFN | QQYHRLPLI -> 140 nM (6 of 6 replicates)
- VFSGQWDGVTTTNSAVA | NVDERML | QQYNRLPLM -> 1.8 nM (6 of 6 replicates)
- MFSQLTYTGSRARNAVA | QASTREN | QQYHHLPLI -> 11 nM (6 of 6 replicates)
- TISQMSTLFAQSINNVA | EVSTRLN | QQYDRLPLA -> 2.5 nM (6 of 6 replicates)
- HFSQSQPYESRMFNSVA | NASLRFS | QQYHRLPLS -> 2.9 nM (6 of 6 replicates)
- KLSMTSEMEHVNRNSVA | ELVTRMS | QQYNRLPLS -> 11 nM (6 of 6 replicates)
- KLSWKSLYGETRWMAIA | NTKVRNA | QQYFRLPLQ -> 24 nM (5 of 6 replicates)
- TLYGLSVSMSKNTNSVA | EMTTRED | QQYDRLPLI -> 66 nM (6 of 6 replicates)
- KLGQMTGIESHNKNSLA | DANRRED | QQYHRLPLS -> 680 pM (6 of 6 replicates)
- MISDLMYYGLRNVNSVA | DLSTRGN | QQYDRLPLS -> 77 nM (6 of 6 replicates)
- KVAQGIYEPKRHSHNIA | EASHVCD | QQYARLPLE -> 4.6 nM (6 of 6 replicates)
- KQSQSVPQGERNKNSVA | MASYRLS | QQYHRLPLS -> 180 nM (4 of 6 replicates)
- KLYDMSALTVTNIRNVA | DNSTREQ | QQYHRLPLS -> 11 nM (6 of 6 replicates)
- KLLQTVMNGRYRRNNVA | HMTMRED | QQYFRLPLS -> 350 nM (2 of 6 replicates)
- KIGQLTTYHSQNGNAIA | QTSTREE | QQYHRLPLS -> 1.4 nM (6 of 6 replicates)
- KLSQSVNLTGKNKNSVA | ELSFREK | QQYERLPLS -> 33 nM (6 of 6 replicates)
- KLSNVTGHMSMAKNNVA | EMVTREN | QQYNRLPLS -> 4.6 nM (6 of 6 replicates)
- IFSQSVLMGNLTKNSIA | QASTRFS | QQYHRLPLI -> 66 nM (6 of 6 replicates)
- KVDQEWDYGSRNKNSVA | NASTRER | QQYHRLPLS -> 49 nM (5 of 6 replicates)
- MVTQMAMTGMMSKRSVA | NATTREP | QQYHRLPLI -> 12 nM (6 of 6 replicates)
- KITWYQLEMRDPGSAVA | EASVRYN | QQYWRLPLE -> 9.8 nM (5 of 6 replicates)
- TISYSALMTGNNRNSVA | QAEERLE | QQYHRLPLS -> 1.3 nM (6 of 6 replicates)
- NITQQGFASGDQRNNVA | NVETLQH | QQYAHLPLL -> 2.6 nM (6 of 6 replicates)
- KLQMQMLYESRMMNSVA | DASVRES | QQYHRLPLS -> 580 pM (6 of 6 replicates)
- MISQLYNFGTFAINSVA | QASLRCN | QQYDRLPLT -> 82 nM (4 of 6 replicates)
- IVSQLMIWGMHVKNSIA | EAELRLN | QQYDRLPLI -> 70 nM (4 of 6 replicates)
- SLYEWETDGQDKSNNIA | EDSHLLE | QQYFHLPLK -> 4.9 nM (6 of 6 replicates)
- KISMLYNYESTAKNSIA | EMTTRES | QHYHRLPLS -> 4.5 nM (6 of 6 replicates)
- KISQMHRVGSTHSNSIA | EEATRSD | QQYHRLPLA -> 76 nM (6 of 6 replicates)
- KLTMITGLEKVLGNNVA | EMETRER | QQYNRLPLS -> 5.3 nM (6 of 6 replicates)
- KLSNSWLYESRNSNSVA | HASKRMS | QQYHRLPLS -> 74 nM (6 of 6 replicates)
- KLSISHQVESINKSNVA | EMVTRES | QQYDRLPLT -> 58 nM (5 of 6 replicates)
- KLTQSTHIESFNKNNVA | EMTTRES | QSYDRLPLS -> 31 nM (6 of 6 replicates)
- VMQMQSDGMLNAKHNVA | GVDMRLE | QHYFRLPLL -> 8.0 nM (6 of 6 replicates)
- KWSQSVEYEQRDKNSVA | NASTRCQ | QQYHRLPLS -> 5.2 nM (6 of 6 replicates)
- MLSEVLHMLGAKKNSIA | DLVLRAN | QQYHRLPLF -> nd (0 of 6 replicates)
- TISNSFMMENQFKNSVA | QATTRES | QCYDRLPLS -> 210 nM (6 of 6 replicates)
- KFSQSELYEERNQNSVA | GASQRLS | QQYHRLPLS -> 750 pM (6 of 6 replicates)
- IVSQLMLWGYHAKNSIA | EAQTRLN | QQYDRLPLW -> 140 nM (2 of 6 replicates)

Repeated from above, the 6 best binders with a signal in all replicates:

{"CDR-L1": "QVTNISDPYGRNRNNIA", "CDR-L2": "QTSERAH", "CDR-L3": "QQYQMLPLA", "Kd (apparent)": "320 pM", "seen in": "6 of 6"}
{"CDR-L1": "KLQMQMLYESRMMNSVA", "CDR-L2": "DASVRES", "CDR-L3": "QQYHRLPLS", "Kd (apparent)": "580 pM", "seen in": "6 of 6"}
{"CDR-L1": "KLGQMTGIESHNKNSLA", "CDR-L2": "DANRRED", "CDR-L3": "QQYHRLPLS", "Kd (apparent)": "680 pM", "seen in": "6 of 6"}
{"CDR-L1": "KFSQSELYEERNQNSVA", "CDR-L2": "GASQRLS", "CDR-L3": "QQYHRLPLS", "Kd (apparent)": "750 pM", "seen in": "6 of 6"}
{"CDR-L1": "KLQFSWEYESRNKNSVA", "CDR-L2": "SAHQREV", "CDR-L3": "QQYHRLPLS", "Kd (apparent)": "930 pM", "seen in": "6 of 6"}
{"CDR-L1": "TISYSALMTGNNRNSVA", "CDR-L2": "QAEERLE", "CDR-L3": "QQYHRLPLS", "Kd (apparent)": "1.3 nM", "seen in": "6 of 6"}